Three molecules from PMC10897367 (EMBO Reports, 2024) can be followed below.

Amino acid sequences for entries named in this document (tags omitted). Residues count along the entry.
UniProt Q9S5X0, 2-726: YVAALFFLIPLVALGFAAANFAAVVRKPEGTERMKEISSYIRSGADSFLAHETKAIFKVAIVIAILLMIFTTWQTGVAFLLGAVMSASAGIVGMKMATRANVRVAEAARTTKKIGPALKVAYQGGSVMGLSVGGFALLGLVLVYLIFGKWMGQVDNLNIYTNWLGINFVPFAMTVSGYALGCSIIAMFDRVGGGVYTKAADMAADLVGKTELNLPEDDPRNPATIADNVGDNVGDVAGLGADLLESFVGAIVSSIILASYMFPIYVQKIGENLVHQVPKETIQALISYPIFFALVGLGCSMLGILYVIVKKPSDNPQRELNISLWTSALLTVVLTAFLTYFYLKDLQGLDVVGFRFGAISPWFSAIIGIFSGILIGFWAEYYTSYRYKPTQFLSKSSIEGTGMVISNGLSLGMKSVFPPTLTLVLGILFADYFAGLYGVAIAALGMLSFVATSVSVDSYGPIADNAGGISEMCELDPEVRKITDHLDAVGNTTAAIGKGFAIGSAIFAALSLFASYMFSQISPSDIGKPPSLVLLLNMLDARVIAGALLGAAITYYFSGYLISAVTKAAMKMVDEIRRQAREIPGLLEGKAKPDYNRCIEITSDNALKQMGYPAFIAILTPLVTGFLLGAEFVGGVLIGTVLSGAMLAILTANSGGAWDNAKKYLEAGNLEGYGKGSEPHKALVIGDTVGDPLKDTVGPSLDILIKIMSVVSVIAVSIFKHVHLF

One data set addresses T1, TmPPase (Thermotoga maritima, UniProt Q9S5X0).
T1 construct: gene hppA
To be noted: PPi in active site of subunit A only, 600 s after Na+ trigger; 2 mM K4PPi, 20 mM NaCl, 2.4 mM MgCl2, pH 8.0.

For the next data set, the target named is T2, PaPPase (Pyrobaculum aerophilum, UniProt Q8ZWI8).
T2 construct: gene hppA
The following applies: Mg5IDP complex in the active site of both subunits; 2 mM IDP, MES pH 6.5; 3.8-5.3 Å anisotropic.

Substrate in the data set “purified protein”: O=P(O)(O)OP(=O)(O)O
The data set can be described thus: purified protein. The following applies: substrate counted as Mg2PPi, 0 mM K+, 5 mM free Mg2+, 50 mM MOPS-TMAOH pH 7.2, 40 °C, substrate-inhibition (two-site dimer) fit, stronger site.

As usually defined, the Km is the substrate concentration at which the rate is half of its maximum.

With `O=P(O)(O)OP(=O)(O)O` [pyrophosphate], the “time-resolved cryo-trapping X-ray crystallography” value at TmPPase was “the positive density at the active site of subunit A changed but was still fit best by PPi”.
Consider `O=P(O)(O)NP(=O)(O)O` [IDP], for which the X-ray crystal structure entry at PaPPase is “The atomic coordinates and structure factors of the PaPPase:Mg5IDP complex (PDB ID: 8B37)”.

B1: PaPPase (Pyrobaculum aerophilum str. IM2) (protein)
chain: NMISYALLGVILGISGVIYAVYLAVWVLRQDPGNEKMRFISQAIATGARAYLFRQYRTLAVLLVILAVLILVAIDMPRRTFGLTALAFIVGALGSMLAGYLGMYVTTRSASRVAQAAATGGMGKALLVSWRAGAVMGLSLASIALLLISGFYLVFRSVLPDDWAVPLVALGFGASLVTLFMRVGGGIYTKAADLGADLVGKVEAGIPEDDPRNPGVIADNVGDNVGDVAGMAADVYESYIVTVTAAIFLAAILGLPTQFIEAIILFAALALVATFAGVNLLKTTGVKHPLSSISLAIYATIGLSVVLFFIGAFTLGLDSTKALALAATTSLGAVIAPLIVKITDYYTSYNYGPVRKIAEQAKISPATVIITGYGVGLMSAIPVIAVIVAVLGISYMIGYYTVPVSGFGELSKYLAGIFGTAMASVGLLVVAGIIITADSYGPVSDNAGGVVEMAGLPDEVREITDVLDSVGNTTKATTKGYAIASAALAALVLFIALIFEIVYSASKILGKGIVDMISESLSGLQLINANVLIGAFLGVALVYFFSSRTLEAVGRTAMEIVEEIRRQFREKPGILEWKEQPDYARVVDIATRRALGEFLIPGLAAIVLPLITGLLLGWNALAGLIMGAIVAGVPRALLMANAGGAWDNAKKYIEIQGLKKTEMHKAAVIGDTVGDPMKDTVGPSLNPLIKVLNTLSVVFTYVIVSTNIALGIWPSGLLPF
For B1, in the data set “purified protein”, the Km was found to be 2.42 ± 0.21 µM.
